Experimental data: PMC8619914, “Development of Novel Peptides for the Antimicrobial Combination Therapy against Carbapenem-Resistant Acinetobacter baumannii Infection” (Pharmaceutics, 2021)

What was measured:
[1] = test system: Escherichia coli (KCTC 1682); conditions: 16 h, absorbance 600 nm
Source text: (§1) The Gram-negative bacterial strain Escherichia coli (KCTC 1682) and Gram-positive bacterial strain Staphylococcus aureus (KCTC 1621) were purchased from the Korean Collection for Type Cultures (Jeongeup, Korea). Acinetobacter baumannii (KCCM 40203) were purchased from Korea Culture Center of Microorganisms (Seoul, Korea). Additionally, five carbapenem-resistant Acinetobacter baumanii C1–C5 (CRAB C1–C5), which have the OXA-23 gene with carbapenem-resistance were collected from the patients with CRAB bacteremia, who presented symptoms and signs of infection at Korea University Anam Hospital (Seoul, Korea) (IRB registration no. 2020AN0157). The minimum inhibitory concentrations (MIC) of the AMP and antibiotics against the various bacterial strains were assessed using the serial dilution method on Muller–Hinton (MH) media, as described previously. […] Absorbance at 600 nm was measured using a SpectraMAX microplate reader (Molecular Devices, San Jose, CA, USA).
(§2) Measurement of the minimum inhibitory concentrations (MIC) was conducted to determine the effect of the hydrophobicity of each antimicrobial peptide on its antimicrobial activity. MIC was defined as the minimum concentration that killed more than 99% of bacteria; it was measured against two standard Gram-negative bacteria (E. coli and A. baumanii), five clinically isolated CRAB (C1–C5), and one Gram-positive bacteria (S. aureus).

[2] = test system: Staphylococcus aureus (KCTC 1621); conditions: MH media, 2 × 10^5 CFU·mL^−1, 37 °C, 16 h, absorbance 600 nm
Source text: as §1, §2

E. coli = conditions: 50% human serum in MH medium, 16 h, 37 °C, absorbance 600 nm; measure of serum stability
Method: Antibacterial activity of PapMA-3 in combination with imipenem was measured against CRAB C1 in the presence of 50% human serum. The treated cells were incubated for 16 h at 37 °C, and the absorbance at 600 nm was measured using a SpectraMAX microplate reader (Molecular Devices).

For CC[C@H](C)[C@H](NC(=O)CN)C(=O)NCC(=O)N[C@@H](C)C(=O)N[C@H](C(=O)N[C@@H](CC(C)C)C(=O)N[C@@H](CCCCN)C(=O)N[C@H](C(=O)N[C@@H](CC(C)C)C(=O)N[C@H](C(=O)N[C@H](C(=O)NCC(=O)N[C@@H](CC(C)C)C(=O)N1CCC[C@H]1C(=O)N[C@@H](C)C(=O)N[C@@H](CC(C)C)C(=O)N[C@H](C(=O)N[C@@H](CO)C(=O)N[C@@H](Cc1c[nH]c2ccccc12)C(=O)N[C@H](C(=O)N[C@@H](CCCCN)C(=O)N[C@@H](CCCNC(=N)N)C(=O)N[C@@H](CCCCN)C(=O)N[C@@H](CCCNC(=N)N)C(=O)N[C@@H](CCC(N)=O)C(=O)N[C@@H](CCC(N)=O)C(N)=O)[C@@H](C)CC)[C@@H](C)CC)[C@@H](C)O)[C@@H](C)O)C(C)C)C(C)C [melittin], which “Minimum Inhibitory Concentration, E. coli, MH Media” value ([1]; MH media without serum, 37 °C) is on record?
Its value is 8 µg/mL.

And the “Minimum Inhibitory Concentration, E. coli” value ([1]; MH media, 2 × 10^5 CFU·mL^−1, 37 °C, MIC kills more than 99% of bacteria)?
Its value is 8 µg/mL.

What about the “Minimum Inhibitory Concentration, S.aureus” value [2] of the same compound?
Its value is 16 µg/mL.

What about the “Minimum Inhibitory Concentration, E. coli, + Serum (50%)” value (E. coli) of the same compound?
The value was 256 µg/mL.
